# Source: patent publication US20240131004A1, “FUNCTIONALIZED 1,3-BENZENE DIOLS AND THEIR METHOD OF USE FOR THE TREATMENT OF INFLAMMATION AND PAIN” (KANNALIFE SCIENCES, INC., priority 2021, published 2024)
# Tested on: hippocampal cultures
# Experiment: Alamar Blue cellular viability in hippocampal cultures, reversal of LPIA toxicity
# Format: cell-based, rat
# Settings: 1 nM LPIA
# Source text: Because the scope of the anti-inflammatory actions of the 1,3-benzene diols included the central nervous system as well, hippocampal cultures were also employed as they express both mNCX-1 and GPR55, the two targets that mediate protection and inflammation, respectively. […] Poly-L-lysine-coated plates (BD Biosciences, Franklin Lakes, NJ) were used because of the preferential adherence and survival of neurons on this matrix support.
# At the conclusion of each experiment, sister cultures to those assessed by image analysis were evaluated with either a fluorescent dye-based assays for neuronal viability (6-carboxyfluorescein diacetate, CFDA) or with viability dye Alamar Blue. The preferred dye was Alamar Blue as this assay of viability could be conducted and then the dye washed off the cultures for subsequent fixation and follow-up immunocytochemical assays. […] In addition, a portion of the reductive conversion of resazurin to the highly fluorescent resorufin in the Alamar Blue reagent is attributable to the action of mitochondrial reductases. Because of the need for enhanced sensitivity, the Alamar Blue assay was predominantly used for these studies. […]
# On every plate, wells without cells were used to provide a blank reading that was used to subtract background fluorescence. […] Fluorescence was measured at an excitation of 530 nm and an emission of 590 on a Cytofluor plate reader. […]
substance,measurement,value
lysophosphatidylinositol arachidonate [LPIA],Effect of LPIA on cellular viability of hippocampal cultures,toxicity
